# Apparent affinities of Ab-14 variants for a coronavirus HR2 peptide

Target: peptide PDVDLGDISGINAS, taken from heptad repeat 2 (HR2) of SARS-CoV-2 spike.

Parent scFv Ab-14: VH joined to VL by the linker GGGGSGGGGSGGGGS. Changes lie in the heavy chain CDRs alone.
VH: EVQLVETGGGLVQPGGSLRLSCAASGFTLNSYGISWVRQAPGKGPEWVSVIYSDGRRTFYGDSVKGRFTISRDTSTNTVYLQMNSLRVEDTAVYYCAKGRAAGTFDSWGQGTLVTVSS
VL: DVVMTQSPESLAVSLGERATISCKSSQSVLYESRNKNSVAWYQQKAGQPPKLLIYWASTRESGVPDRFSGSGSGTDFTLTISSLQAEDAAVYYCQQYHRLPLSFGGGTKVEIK

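Phage display of a naive human antibody library on the peptide gave the parent. AAYL49 was designed without a model: most single CDR substitutions and a random sample of double and triple ones. Affinity was read by AlphaSeq, a pooled yeast mating assay with surface-displayed partners. Binding brings cells together so that they mate, and sequencing counts the barcode pairs among the diploids. Read counts were normalised to the haploid input and turned into Kd by a linear fit to BCL2-family pairs of known affinity, for each replicate. The assay was run in three technical replicates.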

Each variant is given by its three heavy chain CDRs, as the data file delimits them; those of the parent are GFTLNSYGIS, VIYSDGRRTFYGDSVK, GRAAGTFDS.
Every variant below is changed at D106 of the VH (sequential numbering).
Values are apparent Kd, the geometric mean of the replicates that gave a signal; lower means stronger binding.
"nd" marks a missing value. The strain was present, yet no cells mated with the target were sequenced in any replicate, which points to weak or no binding.
Empty control strains, which show no peptide, gave a signal in 15% of pairings with library AAYL49; the median was 11 µM and 95% of these signals were weaker than 680 nM. No background was subtracted. For each scFv, signals with the empty controls are counted beside the result.

CDR-H1	CDR-H2	CDR-H3	Kd (apparent)	replicates with signal	signal with controls
GFTLNSYGIS	VIYSDGRRTLYGDSVK	GYAAGTFLS	18 µM	1/3	1/9
GFTLNSYGIS	VIYSDGMKTFYGDSVK	GRAAGTFES	nd	0/3	0/9
GFTQNSYGIK	VIYSDGRRTFYGDSVK	GRAAGTFSS	16 µM	1/3	3/9
GFTLNSYGIS	VIYSDGRRTFYGDSVK	GRAAGTFVS	33 nM	3/3	0/9
GFCLNSYGIS	VIYSDGRRTFYGDSVK	GRAAGTFHS	nd	0/3	0/9
GFTLNSYGIS	VIDSDGRRTYYGDSVK	GRAAGTFTS	nd	0/3	1/9
GFTHNSYVIS	VIYSDGRRTFYGDSVK	GRAAGTFLS	nd	0/3	0/9
GFTLNSYGIS	VIYSDGRSTFYGDSVK	GRAADTFPS	31 nM	3/3	0/9
GFTLNSYGIS	VIYSDGDRTFYGDSVK	GREAGTFCS	17 µM	1/3	0/9
GFTLNSYGIS	VIYSDGRRTFLGDSVK	GRAAGTFMS	600 nM	2/3	0/9
GFTLNSYGIS	VIYSDGRRTFYGDSVK	GRAAGTFIS	18 nM	3/3	0/9
GFTLNSYGIS	VLYSDGRRTFYGDSVK	GRAAGTFQR	5.6 µM	1/3	4/9
GFTLNSYGIS	HIYSDGRRTFYGGSVK	GRAAGTFGS	nd	0/3	3/9
GFTLNSLGIS	VIYSDGRKTFYGDSVK	GRAAGTFPS	nd	0/3	0/9
GFTCNSYGIS	VIYPDGRRTFYGDSVK	GRAAGTFVS	nd	0/3	0/9
GFTYNSYGSS	VIYSDGRRTFYGDSVK	GRAAGTFWS	22 µM	2/3	5/9
GFTLNSYGIS	VQYSDGRRTFYGDSVK	GRAAGTFIS	nd	0/3	1/9
GFTLNSYGIS	VIYSDGRRTFYGDSVD	GRAAGTFAS	4.3 µM	1/3	1/9
GFTLNSYGIS	VIVSDGRRTFYGDDVK	GRAAGTFSS	nd	0/3	0/9
GVTLNSYGIS	VIYSDGRRTFYGDSVK	GRAAGTFFS	nd	0/3	0/9
GFTLNSYGTS	VIYSDGRRTFYGQSVK	GRAAGTFWS	nd	0/3	1/9
GFTLNSYCIS	VIYSDGRRTFYGDSVK	GRAAGTFHS	14 µM	1/3	2/9
GFTLNSYFIS	VIYSDGRRTFYGDMVK	GRAAGTFFS	nd	0/3	0/9
GFTLNSYVIS	VWYSDGRRTFYGDSVK	GRAAGTFQS	nd	0/3	1/9
GFTLNSYHIS	VIYSHGRRTFYGDSVK	GRAAGTFLS	nd	0/3	0/9
GFTLNSYGIS	VIYSDGRRTFNGDSVK	GRAAGTFES	130 nM	3/3	0/9
GFTLNGYGIS	VIYSHGRRTFYGDSVK	GRAAGTFHS	520 µM	1/3	2/9
GFTLNSYGIS	VIYSDGRRNFYGDSVK	GRAAGTFWH	nd	0/3	2/9
GFTLNSYGIS	VIYSDGRRTFYGDSVK	KRAAWTFFS	37 µM	1/3	3/9
GFTLNSYGIS	VIYSDGRRTFYGDSVK	GRAAGQTRS	28 nM	3/3	1/9
GFTVNSYGIS	VIPSDGRRTFYGDSVK	GRAAGTFCS	nd	0/3	0/9
GFTLNSYGIS	VIYSDGRRTVYGDSVK	YRAAGTFFS	65 µM	1/3	0/9
GRTLNSYGIS	VIYSDGRRTFYGDSVK	IRAAGTFGS	nd	0/3	1/9
GFTLNSYPIS	VIYSDGRRTFYGDSVK	GRAAGTFRS	nd	0/3	1/9
GFTLNSYEIE	VIYSDGRRTFYGDSVK	GRAAGTFRS	9.8 µM	3/3	7/9
GFTLNSYGIS	VIYSIGRRTFYGDDVK	GRAAGTFFS	nd	0/3	2/9
GFTLNSYGGS	VIYSEGRRTFYGDSVK	GRAAGTFIS	nd	0/3	0/9
GFTLNSYGIS	VIYSHGRRTFYGDSVK	GHAAGTFGS	3.6 µM	1/3	0/9
GFTLNSYGIR	VIYSDGRRTFYGDSVK	GRAAGTKES	nd	0/3	4/9
GFTLNSYGIS	VIYSDGRRTFYGDSVK	GRAAGGFRS	2.8 nM	3/3	2/9
GFPANSYGIS	VIYSDGRRTFYGDSVK	GRAAGTFIS	220 nM	1/3	0/9
GFTLNSYGIS	VILSDGRRTFYGDSVK	GRAEGTFIS	3.2 µM	1/3	0/9
GFTLNSYGIH	VIYSFGRRTFYGDSVK	GRAAGTFAS	nd	0/3	0/9
GFTLNMYGIS	VIYSDGRRCFYGDSVK	GRAAGTFVS	2.4 µM	3/3	4/9
GFTLNSYGIS	VIYSDGRRDFYGDSVK	GRAAGTLAS	1.7 µM	1/3	2/9
GFTLNSYGIS	VIYSDGRRTFWGWSVK	GRAAGTFFS	15 µM	2/3	4/9
SFTLNSYGIS	VIYSDGRRTFYGDSVK	GRANGTFFS	130 µM	2/3	1/9
GFTLNSYGIS	VIYSDGRRTFFGDSVK	GRAAGTFHS	350 nM	1/3	0/9
GFTLNLYGDS	VIYSDGRRTFYGDSVK	GRAAGTFTS	nd	0/3	3/9
GTTLNSYGIS	VIYSDGRRTFYGDSQK	GRAAGTFPS	nd	0/3	0/9
GFTLNSYGIS	VCYSDGIRTFYGDSVK	GRAAGTFSS	28 µM	1/3	2/9
GFTFNSYGIS	VIYSDGRRTFYGDSVK	VRAAGTFSS	74 nM	3/3	0/9
GFTLNSYGIS	VIYSDGRRTFYGDSTK	GRAGGTFPS	nd	0/3	2/9
GFTLNSYGIS	VIYSDGRRTFYGDSVI	GRAAYTFTS	nd	0/3	0/9
GFTSNSYGIS	VIYSDGARTFYGDSVK	GRAAGTFSS	nd	0/3	0/9
GFTLDSYGIS	VIYSDRRRTFYGDSVK	GRAAGTFNS	39 µM	3/3	8/9
GFTLNSYGIS	VIYKDGRRTFYGDSVK	GRAEGTFMS	70 µM	2/3	6/9
GFTLNSYEIS	VIYSDGRRTFYGDSVK	GRAAGIFLS	nd	0/3	0/9
CFTLNSYGIS	VIYSDGRRTFIGDSVK	GRAAGTFPS	nd	0/3	4/9
GFTLNSYGIS	VIYWDGRRTFYGDHVK	GRAAGTFCS	58 µM	2/3	2/9
GFTLNSYGIS	VIYMDGRRDFYGDSVK	GRAAGTFTS	nd	0/3	2/9
GFTLNSYGIS	VIFSDGRRTFMGDSVK	GRAAGTFIS	nd	0/3	0/9
GFTLNSYGIS	VIYSQGRRTFYGDSVK	GRAAGTDTS	22 µM	1/3	0/9
GFTLNMFGIS	VIYSDGRRTFYGDSVK	GRAAGTFHS	nd	0/3	1/9
GFTLNSYFIS	VIYSDGRRTFYGDSVK	RRAAGTFYS	14 µM	2/3	0/9
GLTLNSYGIS	VIYSDGRRTFYGDSVK	GRAAGTFNS	nd	0/3	0/9
GFTLNSYGIS	WIYSDGRRTFYGDSVK	GRAAGTFSS	nd	0/3	0/9
GFTLNSYGIS	VIYSDGRNTFYGDSVK	GRNAGTFGS	nd	0/3	3/9
GFTLNSYGIS	VIYSDGRRTFYGDSVK	GRAAGTFWS	6.1 nM	3/3	0/9
GFKLNSYGIS	VIYSDGRRTFYGDSVK	GRAAGTFIS	330 nM	3/3	1/9
GFTLNSYGIS	VIYSDGRRTFYGDSVK	GRVAGTFES	3.1 nM	3/3	1/9

From the AlphaSeq antibody data of Engelhart et al. 2022 (doi:10.1038/s41597-022-01779-4), copy in the FLAb collection.